From ChEMBL document CHEMBL1145407, “Structure-activity relationships of alpha-ketooxazole inhibitors of fatty acid amide hydrolase” (J Med Chem, 2007)

What was measured:
[1] = Selectivity for rat recombinant FAAH over KIAA1363
[2] = Selectivity for rat recombinant FAAH over TGH

Ratio IC50 [1]: > 50000 | Ratio IC50 [2]: 100
SMILES: O=C(CCc1ccc(Oc2ccccc2)cc1)c1ncc(-c2ccccn2)o1
